Results reported in publication PMC9293779, “Elucidation of binding preferences of YEATS domains to site-specific acetylated nucleosome core particles” (The Journal of Biological Chemistry, 2022).

Columns and labels:
[1] = target: T1, YEATS2-YEATS (Homo sapiens, UniProt Q9ULM3); assay: Isothermal titration calorimetry, YEATS2-YEATS; assay type: binding; conditions: 15 °C, 20 mM Tris-HCl pH 7.6, 500 mM NaCl; 100 μM protein, 1 mM peptide
T1 construct: For ITC experiments, the cDNAs encoding AF9-YEATS (residues 1–138) and YEATS2-YEATS (200–349) were inserted into the same vector; polyhistidine tag (N); GST (N); made in house
T1 sequence (Q9ULM3 200-349): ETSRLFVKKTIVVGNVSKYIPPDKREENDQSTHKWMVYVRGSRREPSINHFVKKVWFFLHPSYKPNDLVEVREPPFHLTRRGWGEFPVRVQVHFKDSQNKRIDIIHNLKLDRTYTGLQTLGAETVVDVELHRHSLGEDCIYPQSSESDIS

[2] = target: T1, YEATS2-YEATS; assay: Peptide array-based binding assay, YEATS2-YEATS; conditions: 10 μM YEATS domain, 4 °C overnight, anti-GST/HRP chemiluminescence
Description: For the assay using the MODified Histone Peptide Array, the same cDNA sequences encoding human YEATS domains were amplified by PCR and subcloned into a pCR2.1 vector with a GST-encoding sequence inserted after an N-terminal polyhistidine tag. For microscale thermophoresis measurements, a similar construct but without GST was used. Site-directed mutagenesis of AF9-YEATS (residues 1–138) was conducted by PCR using the DpnI restriction enzyme and the following primer sets: 5′-CCTTCACGCATCCTTTCCTCGTCCTAAAC-3′ (forward) and 5′-GGAAAGGATGCGTGAAGGTGAAACACCAC-3′ (reverse) for E57A and 5′-CGACTATGACCTGTTTCTGCATCTCG-3′ (forward) and 5′-GCAGAAACAGTGCATAGTCGAAGCGAAC-3′ (reverse) for D103A. The introduced mutations were verified by DNA sequencing. For X-ray structural analysis, the cDNAs encoding AF9-YEATS (residues 1–138) and YEATS2-YEATS (202–338) were amplified by PCR and subcloned into the pCR2.1 vector encoding GST and the polyhistidine tag. […]
Assays were performed using the MODified Histone Peptide Array (Active Motif) following the manufacturer’s protocol. […] Protein binding was detected by Chemi-Lumi One Super (Nacalai Tesque). Signal intensities were quantified by using the Protein Array Analyzer for ImageJ (written by Gilles Carpentier, 2010. The macro is available online: http://rsb.info.nih.gov/ij/macros/toolsets/Protein Array Analyzer.txt).

For “K27ac-containing H3 (15–39) peptide: histone H3 (15–39) peptide acetylated on K27”, the “binding (ITC)” value [1] was “did not bind” and the “binding on MODified Histone Peptide Array” value [2] was “weakly and nonreproducibly bound”.
